# Measurements published in patent publication US9771336B2, “Tetrazole based corrosion inhibitors” (Ecolab USA Inc., priority 2013, dated 2017).
# Assay: Copper corrosion rate with and without bleach in a cooling water environment
# Conditions: average copper corrosion rate, inhibitor concentration 5 ppm
smiles,measurement,setting,value
C(Cc1nnn[nH]1)CC(CCc1nnn[nH]1)c1nnn[nH]1 (centres unmarked),Corrosion Rate (mpy) with Bleach (1 FRC),with bleach,0.108 mpy
same,Corrosion Rate (mpy) without Bleach,without bleach,0.223 mpy
